One molecule from US20240148749A1, “MNTBAP AND M(III)N-SUBSTITUTED PYRIDYLPORPHYRINS(MNPS)FOR USE IN REVERSING SEPSIS-INDUCED MICROGLIAL CELLS ALTERATIONS AND/OR FOR TREATING SEPSIS OR SEPSIS-ASSOCIATED ENCEPHALOPATHY” (priority 2021, published 2024) can be followed below.

In the assay the test system is CLP mice. The assay is described as follows: Survival after cecal ligation and puncture (CLP) model of sepsis. The class given is in vivo, mouse. As to the method: (d) Survival curve of control and CLP mice with or without MnTBAP during time (n=10-12 per group). A log-rank (Mantel-Cox) p value for trend was calculated.
We used peritonitis induced by CLP as a model of sepsis (Rittirsch et al., 2009). Briefly, animals were anesthetized with ketamine (Imalgene® 1000 100 mg/kg, Merial, France) and Xylazine (Rompun® 2% 20 mg/kg, Bayer, Germany) prior to surgery. After laparotomy, caecum was ligatured at the distal third with a 4.0 suture and the distal part was perforated twice with a 21 Gauge needle. […]
Clinical score was assessed 6, 12 and 24 hours and 21 days after CLP using a modified SmithKline Beecham, Harwell, Imperial College and Royal London Hospital phenotype assessment (SHIRPA) (Rogers et al., 1997) of the maximum score of fourteen. Weight, temperature and locomotor activity using an open field box were measured at the same time points. We determined survival rate twice a day for 21 days after CLP. […] Each condition was scored from 0 to 2. […]
At the end, two groups were compared: CLP-Placebo, CLP-BMX-010. We determined survival rate twice a day for 4 days after CLP.”

For `O=C(O)c1ccc(/C2=C3\C=CC(=N3)/C(c3ccc(C(=O)O)cc3)=c3/cc/c4[n]3[Mn]([Cl])[n]3c2ccc3/C(c2ccc(C(=O)O)cc2)=C2/C=CC(=N2)\C=4c2ccc(C(=O)O)cc2)cc1` [MnTBAP, Manganese (III) tetrakis (4-benzoic acid)porphyrin chloride], for the setting “after CLP, MnTBAP mice”, the “survival rate compared with placebo mice” value is recorded as “significant improvement”. Also, the septic-mice mortality result (systemic MnTBAP treatment, FIG. 4) is reported as “strongly reduced”.
